Data taken from PMC6688529.

What was measured:
[1] = target: cytochrome c2-His6 (Rba. sphaeroides strain 2.4.1) (UniProt P0C0X8); experiment: single-molecule dynamic force spectroscopy (AFM); as a1 (retraction velocity 500 nm s^-1), but after about 10 min with 3 µM free pre-reduced cytochrome c2-His6 in the AFM liquid cell
[2] = target: cytochrome c2-His6 (Rba. sphaeroides strain 2.4.1) (UniProt P0C0X8); experiment: PeakForce QNM single-molecule force spectroscopy (AFM); RC–LH1–PufX on the AFM tip, illuminated; pre-reduced cytochrome c2-His6 (and His6-CFP in patterned lines) held on a Ni-NTA SiOx substrate; 10 mM HEPES pH 7.4, 45 mM KCl, room temperature; modulation frequencies 0.5, 1 and 2 kHz
[3] = target: cytochrome c2-His6 (Rba. sphaeroides strain 2.4.1) (UniProt P0C0X8); experiment: single-molecule dynamic force spectroscopy (AFM); RC–LH1–PufX on the AFM tip via His12/Ni-NTA and a PEG12 linker, kept photo-oxidised by white light; pre-reduced cytochrome c2-His6 held on a Ni-NTA SiOx substrate via His6; 10 mM HEPES pH 7.4, 45 mM KCl, room temperature; retract velocity 200–3000 nm s^-1; the paper calls the values apparent

binding probability with 3 µM free cytochrome c2-His6 [1]: 4%
peak of the unbinding force histogram with 3 µM free cytochrome c2-His6 [1]: 280 pN
binding probability [2]: 33%
rupture force of a single unbinding event [2]: 540 pN
binding probability (unbinding events per force–distance curves, 500 nm s^-1) [3]: 20.3%
rupture force of a typical single curve (retraction 500 nm s^-1) [3]: 185 pN
rupture force of a typical single curve (retraction 1500 nm s^-1) [3]: 272 pN
rupture force of a typical single curve (retraction 3000 nm s^-1) [3]: 375 pN
Substance: monomeric RC–His12–LH1–PufX core complex (reaction centre light-harvesting 1-PufX) (from UniProt P0C0Y7 1-260; P0C0Y8 2-282; P0C0Y9 2-308; P0C0X9 1-58; P0C0Y1 1-49; P13402 1-82)
